The conditions of the data set: mice, 1 day: oral 2 g, subcutaneous 1 g, intravenous 0.3 g/kg; observed up to 90 days.

Each structure is given as a SMILES string.

For the molecule `CC(=O)C=O` [methylglyoxal], the external toxic symptoms entry is “No external toxic symptoms”.

(Values after US9198896B2 (priority 2006, dated 2015).)
